Assay results: ChEMBL document CHEMBL5316347, “Design, Synthesis, and Biological Evaluation of Bipyridazine Derivatives as Stimulator of Interferon Genes (STING) Receptor Agonists” (J Med Chem, 2023)
Values belong to the compound of their own block, whether it stands above or below them. Activity calls are given as the source filed them. No cut-off for these calls is given here.

Key:
Type in all cases: cell-based
[1] = target: T1, Stimulator of interferon genes protein (Mus musculus) (UniProt Q3TBT3); assay: Agonist activity at STING in STING knockout mouse RAW-Lucia ISG cells assessed as induction of p65 S536 phosphorylation at 20 uM measured upto 3 hrs by Western blotting analysis
T1 sequence (whole entry): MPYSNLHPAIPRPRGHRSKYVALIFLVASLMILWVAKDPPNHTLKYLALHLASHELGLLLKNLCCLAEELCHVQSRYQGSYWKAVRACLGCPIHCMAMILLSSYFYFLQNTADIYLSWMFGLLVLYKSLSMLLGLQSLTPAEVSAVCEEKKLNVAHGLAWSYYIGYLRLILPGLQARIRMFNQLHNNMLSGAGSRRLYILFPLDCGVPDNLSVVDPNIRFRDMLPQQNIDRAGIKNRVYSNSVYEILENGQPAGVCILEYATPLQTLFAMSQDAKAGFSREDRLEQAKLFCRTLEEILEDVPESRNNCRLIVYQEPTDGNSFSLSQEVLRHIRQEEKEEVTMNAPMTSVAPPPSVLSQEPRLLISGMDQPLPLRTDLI

[2] = target: T1, Stimulator of interferon genes protein (Mus musculus); assay: Agonist activity at STING in STING knockout mouse RAW-Lucia ISG cells assessed as induction of TBK1 S172 phosphorylation at 20 uM measured upto 3 hrs by Western blotting analysis
[3] = target: T1, Stimulator of interferon genes protein (Mus musculus); assay: Agonist activity at STING in cGAS knockout mouse RAW-Lucia ISG cells assessed as induction of p65 S536 phosphorylation at 20 uM measured upto 3 hrs by Western blotting analysis; settings: filed as agonist
[4] = target: T1, Stimulator of interferon genes protein (Mus musculus); assay: Agonist activity at STING in mouse RAW-Lucia ISG cells assessed as induction of TBK1 S172 phosphorylation at 20 uM measured upto 6 hrs by Western blotting analysis; settings: filed as agonist
[5] = target: T1, Stimulator of interferon genes protein (Mus musculus); assay: Agonist activity at STING in cGAS knockout mouse RAW-Lucia ISG cells assessed as induction of IRF3 S396 phosphorylation at 20 uM measured upto 3 hrs by Western blotting analysis; settings: filed as agonist
[6] = target: T1, Stimulator of interferon genes protein (Mus musculus); assay: Agonist activity at STING in mouse RAW-Lucia ISG cells assessed as induction of IRF3 S396 phosphorylation at 20 uM measured upto 6 hrs by Western blotting analysis; settings: filed as agonist
[7] = target: T1, Stimulator of interferon genes protein (Mus musculus); assay: Agonist activity at STING in STING knockout mouse RAW-Lucia ISG cells assessed as induction of IRF3 S396 phosphorylation at 20 uM measured upto 3 hrs by Western blotting analysis
[8] = target: T1, Stimulator of interferon genes protein (Mus musculus); assay: Agonist activity at STING in mouse RAW-Lucia ISG cells assessed as induction of p65 S536 phosphorylation at 20 uM measured upto 6 hrs by Western blotting analysis; settings: filed as agonist
[9] = target: T1, Stimulator of interferon genes protein (Mus musculus); assay: Agonist activity at STING in mouse RAW-Lucia ISG cells assessed as induction of STAT3 Y705 phosphorylation at 20 uM measured upto 6 hrs by Western blotting analysis; settings: filed as agonist
[10] = target: T1, Stimulator of interferon genes protein (Mus musculus); assay: Agonist activity at STING in cGAS knockout mouse RAW-Lucia ISG cells assessed as induction of STAT3 Y705 phosphorylation at 20 uM measured upto 3 hrs by Western blotting analysis; settings: filed as agonist
[11] = target: T1, Stimulator of interferon genes protein (Mus musculus); assay: Agonist activity at STING in STING knockout mouse RAW-Lucia ISG cells assessed as induction of STAT3 Y705 phosphorylation at 20 uM measured upto 3 hrs by Western blotting analysis
[12] = target: T1, Stimulator of interferon genes protein (Mus musculus); assay: Agonist activity at STING in cGAS knockout mouse RAW-Lucia ISG cells assessed as induction of TBK1 S172 phosphorylation at 20 uM measured upto 3 hrs by Western blotting analysis; settings: filed as agonist
[13] = target: T1, Stimulator of interferon genes protein (Mus musculus); assay: Agonist activity at STING in cGAS knockout mouse RAW-Lucia ISG cells assessed as induction of IRF3 S396 phosphorylation at 50 uM measured upto 3 hrs by Western blotting analysis; settings: filed as agonist
[14] = target: T1, Stimulator of interferon genes protein (Mus musculus); assay: Agonist activity at STING in mouse RAW-Lucia ISG cells assessed as induction of p65 S536 phosphorylation at 50 uM measured upto 6 hrs by Western blotting analysis; settings: filed as agonist
[15] = target: T1, Stimulator of interferon genes protein (Mus musculus); assay: Agonist activity at STING in mouse RAW-Lucia ISG cells assessed as induction of IRF3 S396 phosphorylation at 50 uM measured upto 6 hrs by Western blotting analysis; settings: filed as agonist
[16] = target: T1, Stimulator of interferon genes protein (Mus musculus); assay: Agonist activity at STING in mouse RAW-Lucia ISG cells assessed as induction of STAT3 Y705 phosphorylation at 50 uM measured upto 6 hrs by Western blotting analysis; settings: filed as agonist
[17] = target: T1, Stimulator of interferon genes protein (Mus musculus); assay: Agonist activity at STING in STING knockout mouse RAW-Lucia ISG cells assessed as induction of p65 S536 phosphorylation at 50 uM measured upto 3 hrs by Western blotting analysis
[18] = target: T1, Stimulator of interferon genes protein (Mus musculus); assay: Agonist activity at STING in STING knockout mouse RAW-Lucia ISG cells assessed as induction of TBK1 S172 phosphorylation at 50 uM measured upto 3 hrs by Western blotting analysis
[19] = target: T1, Stimulator of interferon genes protein (Mus musculus); assay: Agonist activity at STING in STING knockout mouse RAW-Lucia ISG cells assessed as induction of STAT3 Y705 phosphorylation at 50 uM measured upto 3 hrs by Western blotting analysis
[20] = target: T1, Stimulator of interferon genes protein (Mus musculus); assay: Agonist activity at STING in mouse RAW-Lucia ISG cells assessed as induction of TBK1 S172 phosphorylation at 50 uM measured upto 6 hrs by Western blotting analysis; settings: filed as agonist
[21] = target: T1, Stimulator of interferon genes protein (Mus musculus); assay: Agonist activity at STING in STING knockout mouse RAW-Lucia ISG cells assessed as induction of IRF3 S396 phosphorylation at 50 uM measured upto 3 hrs by Western blotting analysis
[22] = target: T1, Stimulator of interferon genes protein (Mus musculus); assay: Agonist activity at STING in cGAS knockout mouse RAW-Lucia ISG cells assessed as induction of p65 S536 phosphorylation at 50 uM measured upto 3 hrs by Western blotting analysis; settings: filed as agonist
[23] = target: T1, Stimulator of interferon genes protein (Mus musculus); assay: Agonist activity at STING in cGAS knockout mouse RAW-Lucia ISG cells assessed as induction of STAT3 Y705 phosphorylation at 50 uM measured upto 3 hrs by Western blotting analysis; settings: filed as agonist
[24] = target: T1, Stimulator of interferon genes protein (Mus musculus); assay: Agonist activity at STING in cGAS knockout mouse RAW-Lucia ISG cells assessed as induction of TBK1 S172 phosphorylation at 50 uM measured upto 3 hrs by Western blotting analysis; settings: filed as agonist

- Activity [1]: inactive
- Activity [2]: inactive
- Activity [3]: Active
- Activity [4]: Active
- Activity [5]: Active
- Activity [6]: Active
- Activity [7]: inactive
- Activity [8]: Active
- Activity [9]: Active
- Activity [10]: Active
- Activity [11]: inactive
- Activity [12]: Active
Compound: C#Cc1cc(NC(=O)c2ccc(-c3ccnnc3)nn2)c(C(=O)O)cc1F

- Activity [13]: Active
- Activity [14]: Active
- Activity [15]: Active
- Activity [16]: Active
- Activity [17]: inactive
- Activity [18]: inactive
- Activity [19]: inactive
- Activity [20]: Active
- Activity [21]: inactive
- Activity [22]: Active
- Activity [23]: Active
- Activity [24]: Active
Compound: O=C(Nc1cc(Br)c(F)cc1C(=O)O)c1ccc(-c2ccnnc2)nn1
